Reference: publication PMC8164048

Protein sequences, listed by entry. Tags and fused reporters are not part of them. Residues count along the entry.
UniProt Q07954, 20-4544: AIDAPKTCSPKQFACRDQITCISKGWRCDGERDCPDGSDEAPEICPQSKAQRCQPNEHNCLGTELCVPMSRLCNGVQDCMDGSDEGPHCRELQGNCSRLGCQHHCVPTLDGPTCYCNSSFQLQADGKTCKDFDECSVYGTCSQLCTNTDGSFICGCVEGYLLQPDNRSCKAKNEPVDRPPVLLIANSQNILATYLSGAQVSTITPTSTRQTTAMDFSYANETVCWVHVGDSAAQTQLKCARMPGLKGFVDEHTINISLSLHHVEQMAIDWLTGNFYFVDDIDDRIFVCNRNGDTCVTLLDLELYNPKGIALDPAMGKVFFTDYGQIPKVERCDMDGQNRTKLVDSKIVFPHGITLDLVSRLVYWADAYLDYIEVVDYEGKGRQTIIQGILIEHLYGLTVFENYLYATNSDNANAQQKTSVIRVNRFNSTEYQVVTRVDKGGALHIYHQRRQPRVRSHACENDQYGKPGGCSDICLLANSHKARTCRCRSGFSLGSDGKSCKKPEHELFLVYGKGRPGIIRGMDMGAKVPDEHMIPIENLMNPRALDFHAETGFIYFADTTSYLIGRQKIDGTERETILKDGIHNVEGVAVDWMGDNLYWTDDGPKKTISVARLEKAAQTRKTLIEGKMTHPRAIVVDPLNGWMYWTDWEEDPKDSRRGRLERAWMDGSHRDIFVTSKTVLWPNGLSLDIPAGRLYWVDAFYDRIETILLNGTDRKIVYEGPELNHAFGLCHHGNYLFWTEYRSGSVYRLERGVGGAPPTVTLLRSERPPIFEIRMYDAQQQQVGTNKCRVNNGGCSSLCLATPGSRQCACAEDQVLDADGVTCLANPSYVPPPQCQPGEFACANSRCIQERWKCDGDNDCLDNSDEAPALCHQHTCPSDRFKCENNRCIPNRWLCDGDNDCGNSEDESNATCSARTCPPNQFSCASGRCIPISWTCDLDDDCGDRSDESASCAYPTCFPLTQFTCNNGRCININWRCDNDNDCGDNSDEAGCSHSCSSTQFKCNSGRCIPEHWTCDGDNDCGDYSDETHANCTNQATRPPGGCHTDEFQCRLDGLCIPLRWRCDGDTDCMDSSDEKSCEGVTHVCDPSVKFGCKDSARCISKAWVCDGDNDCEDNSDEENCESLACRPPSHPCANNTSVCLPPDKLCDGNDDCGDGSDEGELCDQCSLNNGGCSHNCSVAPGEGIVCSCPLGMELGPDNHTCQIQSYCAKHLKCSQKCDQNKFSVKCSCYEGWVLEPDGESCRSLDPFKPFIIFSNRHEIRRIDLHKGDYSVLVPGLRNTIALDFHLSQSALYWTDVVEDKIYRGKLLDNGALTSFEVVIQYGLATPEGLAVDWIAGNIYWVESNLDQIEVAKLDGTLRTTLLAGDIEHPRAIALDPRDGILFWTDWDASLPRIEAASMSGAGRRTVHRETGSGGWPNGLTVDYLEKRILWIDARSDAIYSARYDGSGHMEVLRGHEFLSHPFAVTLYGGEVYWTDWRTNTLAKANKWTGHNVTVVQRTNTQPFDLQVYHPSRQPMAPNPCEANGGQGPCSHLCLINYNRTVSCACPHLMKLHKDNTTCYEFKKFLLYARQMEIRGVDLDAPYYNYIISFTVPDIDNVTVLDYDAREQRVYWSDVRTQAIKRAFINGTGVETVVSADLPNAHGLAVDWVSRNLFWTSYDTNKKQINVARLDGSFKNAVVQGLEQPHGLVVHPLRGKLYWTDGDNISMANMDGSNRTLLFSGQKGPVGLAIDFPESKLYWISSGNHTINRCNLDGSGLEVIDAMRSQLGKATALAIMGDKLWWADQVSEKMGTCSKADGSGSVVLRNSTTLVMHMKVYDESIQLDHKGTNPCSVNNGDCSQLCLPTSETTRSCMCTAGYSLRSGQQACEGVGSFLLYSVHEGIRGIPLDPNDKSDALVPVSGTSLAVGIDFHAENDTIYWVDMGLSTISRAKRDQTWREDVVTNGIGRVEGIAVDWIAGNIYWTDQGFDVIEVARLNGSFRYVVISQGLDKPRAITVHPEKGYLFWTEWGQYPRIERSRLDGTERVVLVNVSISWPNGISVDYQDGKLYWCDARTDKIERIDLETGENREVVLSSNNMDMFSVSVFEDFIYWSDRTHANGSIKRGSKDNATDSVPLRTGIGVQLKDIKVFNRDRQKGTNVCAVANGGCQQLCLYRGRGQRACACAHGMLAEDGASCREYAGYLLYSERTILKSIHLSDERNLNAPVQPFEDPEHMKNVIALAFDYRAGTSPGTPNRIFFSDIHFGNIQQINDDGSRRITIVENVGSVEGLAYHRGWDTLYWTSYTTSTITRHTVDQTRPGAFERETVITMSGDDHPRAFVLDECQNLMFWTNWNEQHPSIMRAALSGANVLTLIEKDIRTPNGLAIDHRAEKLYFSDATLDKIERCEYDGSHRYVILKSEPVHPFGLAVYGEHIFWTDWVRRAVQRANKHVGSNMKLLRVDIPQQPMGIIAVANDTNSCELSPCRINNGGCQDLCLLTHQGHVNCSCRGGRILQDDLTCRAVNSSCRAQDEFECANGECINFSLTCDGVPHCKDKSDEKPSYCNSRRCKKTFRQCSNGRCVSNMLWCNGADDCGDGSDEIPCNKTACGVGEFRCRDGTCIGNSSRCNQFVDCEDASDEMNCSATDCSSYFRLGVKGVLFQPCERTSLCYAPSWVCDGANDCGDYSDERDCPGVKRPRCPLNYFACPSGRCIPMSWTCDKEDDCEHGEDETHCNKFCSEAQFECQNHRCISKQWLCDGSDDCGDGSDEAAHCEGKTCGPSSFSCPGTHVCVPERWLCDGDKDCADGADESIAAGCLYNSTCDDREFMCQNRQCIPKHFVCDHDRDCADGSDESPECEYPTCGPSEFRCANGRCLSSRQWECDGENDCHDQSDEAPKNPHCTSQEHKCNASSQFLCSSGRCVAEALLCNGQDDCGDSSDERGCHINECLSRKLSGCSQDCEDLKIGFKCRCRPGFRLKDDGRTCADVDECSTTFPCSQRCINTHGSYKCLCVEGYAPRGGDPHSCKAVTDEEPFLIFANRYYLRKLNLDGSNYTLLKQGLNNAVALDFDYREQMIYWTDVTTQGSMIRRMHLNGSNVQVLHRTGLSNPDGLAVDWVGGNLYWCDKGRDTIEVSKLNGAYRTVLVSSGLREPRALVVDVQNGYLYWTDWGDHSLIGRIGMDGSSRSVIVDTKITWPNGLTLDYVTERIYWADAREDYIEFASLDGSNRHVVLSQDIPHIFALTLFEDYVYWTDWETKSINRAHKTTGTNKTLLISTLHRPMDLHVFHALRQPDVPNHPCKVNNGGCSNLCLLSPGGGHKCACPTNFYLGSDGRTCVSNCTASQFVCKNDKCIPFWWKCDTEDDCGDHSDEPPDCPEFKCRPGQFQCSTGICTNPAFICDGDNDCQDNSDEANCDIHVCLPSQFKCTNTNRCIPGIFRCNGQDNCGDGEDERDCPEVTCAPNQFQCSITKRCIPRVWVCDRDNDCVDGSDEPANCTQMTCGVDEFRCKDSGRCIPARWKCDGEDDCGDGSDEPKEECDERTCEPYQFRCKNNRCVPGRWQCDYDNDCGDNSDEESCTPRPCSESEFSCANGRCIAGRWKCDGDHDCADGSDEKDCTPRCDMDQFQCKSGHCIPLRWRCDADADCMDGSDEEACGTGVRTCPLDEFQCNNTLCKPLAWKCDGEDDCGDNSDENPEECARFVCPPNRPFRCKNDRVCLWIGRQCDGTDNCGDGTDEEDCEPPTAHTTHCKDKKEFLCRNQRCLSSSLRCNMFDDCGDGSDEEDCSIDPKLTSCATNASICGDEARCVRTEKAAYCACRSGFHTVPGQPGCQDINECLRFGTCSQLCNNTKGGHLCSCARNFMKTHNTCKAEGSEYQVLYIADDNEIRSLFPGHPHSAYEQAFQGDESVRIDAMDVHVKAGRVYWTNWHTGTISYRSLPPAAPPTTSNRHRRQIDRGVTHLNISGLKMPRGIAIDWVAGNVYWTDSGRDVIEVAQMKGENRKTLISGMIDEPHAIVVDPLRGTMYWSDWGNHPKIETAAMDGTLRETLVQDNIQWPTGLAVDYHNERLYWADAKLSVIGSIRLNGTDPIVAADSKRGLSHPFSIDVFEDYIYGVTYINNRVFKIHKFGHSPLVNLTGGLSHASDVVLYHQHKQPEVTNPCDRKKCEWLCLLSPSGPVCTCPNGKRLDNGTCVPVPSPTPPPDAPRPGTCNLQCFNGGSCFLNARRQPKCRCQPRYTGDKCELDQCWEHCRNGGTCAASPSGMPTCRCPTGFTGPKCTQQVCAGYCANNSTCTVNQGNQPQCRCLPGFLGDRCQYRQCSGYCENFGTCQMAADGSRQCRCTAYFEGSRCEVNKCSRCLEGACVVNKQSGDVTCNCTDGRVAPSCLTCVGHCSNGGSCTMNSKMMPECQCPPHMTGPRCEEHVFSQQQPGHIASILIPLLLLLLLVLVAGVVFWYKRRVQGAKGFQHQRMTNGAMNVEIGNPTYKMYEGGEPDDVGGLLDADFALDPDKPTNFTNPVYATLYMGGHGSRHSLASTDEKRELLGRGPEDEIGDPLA

Tests used:
[1] = target: Recombinant human LRP1 cluster II Fc chimera (human); test: SPR; LRP1 clusters II, III or IV immobilized on SPR chips; single-cycle kinetic experiment with monomeric tau, equilibrium analysis
[2] = target: Recombinant human LRP1 cluster IV Fc chimera (human); test: as above
[3] = target: Full-length human low-density lipoprotein receptor-related protein 1 (LRP1) (human) (UniProt Q07954); test: SPR; full-length LRP1 coupled to the chip (Biacore 3000); single-cycle kinetic titration of tau forms (3.8, 11.5, 34.4, 103.3, 310 nM, 3.5-min injections), with Ca2+; Req from a pseudo first-order fit plotted against concentration, KD by nonlinear regression

Substance | Kd [1] [nM] | Kd [2] [nM] | Kd [3] [nM]
tau, 2N4R variant (recombinant, unmodified, produced in E. coli) (from UniProt P10636-8 1-441) (natural protein) | 69 | 81 | 60
hyperphosphorylated 2N4R tau produced in Sf9 insect cells (from UniProt P10636-8 1-441) (natural protein; hyperphosphorylated (intermediate tau phosphorylation state); sites not printed) |  |  | 243
